# Laboratory results: patent US9159937B2, “Heteroleptic light-emitting complexes” (SOLVAY SA, priority 2011, dated 2015)
# Read-outs that look alike come from different tables or passages of the source.
# Assay: Solubility evaluation in toluene
# Assay type: physicochemical
# Protocol: Solubility evaluation were performed at 25° C. using toluene as solvent.
substance,measurement,setting,value
[Ir(n-hexPhQ)3],Toluene solubility S at 25° C.,,S > 1.0 wt %
same,Toluene solubility S at 25° C.,listed as Ir(n-hexPhQ)3,> 1 wt %
